Where a name gives a salt, the structure may show the parent alone.
Tests used:
[1] = target: Aurora A (Homo sapiens (Human), UniProt O14965); assay: biochemical
[2] = tested on: phosphorylation of serine 10 on Histone H3 (Aurora A substrate) in MDA-MB-468 breast cancer cells

Sequences of proteins named here, by UniProt entry; tags and fusion partners are left off. A change or cut given only in a name is not applied to a line headed by its entry.
UniProt O14965: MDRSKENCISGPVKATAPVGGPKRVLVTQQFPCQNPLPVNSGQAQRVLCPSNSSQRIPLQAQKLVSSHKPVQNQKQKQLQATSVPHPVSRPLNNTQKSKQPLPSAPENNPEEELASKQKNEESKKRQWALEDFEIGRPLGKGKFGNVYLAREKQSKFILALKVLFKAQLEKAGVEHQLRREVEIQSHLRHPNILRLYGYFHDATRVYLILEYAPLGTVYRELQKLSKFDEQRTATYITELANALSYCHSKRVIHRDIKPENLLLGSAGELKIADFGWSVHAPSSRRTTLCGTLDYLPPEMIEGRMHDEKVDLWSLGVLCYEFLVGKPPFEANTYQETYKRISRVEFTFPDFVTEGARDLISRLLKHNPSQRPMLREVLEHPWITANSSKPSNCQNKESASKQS

SMILES	IC50 [1]	effect on Histone H3 phosphorylation levels (FIG. 13, words) [2]
CCOC(=O)c1ccc(Nc2nc(Cl)c(Cl)c(Nc3ccccc3C(=O)O)n2)cc1.Cl [Compound 3t, N^4-(2-Carboxyphenyl)-N^2-(4-ethoxycarbonylphenyl)-5,6-dichloropyrimidine-2,4-diamine hydrochloride]	0.8 to 4 nM	
CN(C)CCNC(=O)c1ccc(Nc2nccc(Nc3ccccc3Cl)n2)cc1 [Compound 9a, N^4-(2-Chlorophenyl)-N^2-[4-N-(2-morpholinoethyl)carbamoylphenyl]pyrimidine-2,4-diamine dihydro-chloride]		mediocre to good improvements
O=C(NCCN1CCOCC1)c1ccc(Nc2nccc(Nc3ccccc3Cl)n2)cc1 [Compound 9b, N^4-(2-Chlorophenyl)-N^2-[4-N-(2-dimethylaminoethyl)carbamoylphenyl]-pyrimidine-2,4-diamine dihydro-chloride]		mediocre to good improvements
CS(=O)(=O)c1ccc(Nc2nccc(Nc3ccccc3Cl)n2)cc1 [Compound 9d, N^4-(2-Chlorophenyl)-N^2-[4-(methylsulfonyl)phenyl]pyrimidine-2,4-diamine]		mediocre to good improvements
Fc1cnc(Nc2ccc(N3CCOCC3)cc2)nc1Nc1ccccc1Cl [Compound 9j, N^4-(2-Chlorophenyl)-N^2-[4-(N-morpholino)phenyl]-5-fluoropyrimidine-2,4-diamine]		greatly improved the ability to suppress Histone H3 phosphorylation
Clc1ccccc1Nc1ccnc(Nc2ccc(-c3nnn[nH]3)cc2)n1 [Compound 13a, N^4-(2-Chlorophenyl)-N^2-[4-(2H-tetrazol-5-yl)phenyl]pyrimidine-2,4-diamine hydrochloride]		did not improve activity
Fc1cnc(Nc2ccc(-c3nnn[nH]3)cc2)nc1Nc1ccccc1Cl [Compound 13b, N^4-(2-Chlorophenyl)-N^2-[4-(2H-tetrazol-5-yl)phenyl]-5-fluoropyrimidine-2,4-diamine hydrochloride]		did not improve activity
Clc1ccccc1Nc1nc(Nc2ccc(-c3nnn[nH]3)cc2)ncc1Cl [Compound 13d, N^4-(2-Chlorophenyl)-N^2-[4-(2H-tetrazol-5-yl)phenyl]-5-chloropyrimidine-2,4-diamine hydrochloride]		did not improve activity
